## Antibody variant affinities, Ab-14 heavy chain, assay B

The measurements come from Li et al. 2023 (doi:10.1038/s41467-023-39022-2) through the FLAb antibody collection.

Target: peptide PDVDLGDISGINAS, taken from heptad repeat 2 (HR2) of SARS-CoV-2 spike.

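Designed CDR sequences, proposed from the first random library and measured here. Their group label is 14H_En_Gibbs (En: ensemble of fine-tuned language models; Gibbs: Gibbs sampling). The scFvs were displayed on barcoded MATa yeast, the peptide on MATalpha yeast. Mating (16 h, 30 °C) was followed by selection of diploids and sequencing of their barcodes. A regression on co-assayed BCL2-family reference pairs converts the normalised counts of each replicate to an apparent Kd. Mating was done six times.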

The variants keep the light chain, the linker and the frameworks of Ab-14 (scFv order VH, the linker GGGGSGGGGSGGGGS, VL).
VH: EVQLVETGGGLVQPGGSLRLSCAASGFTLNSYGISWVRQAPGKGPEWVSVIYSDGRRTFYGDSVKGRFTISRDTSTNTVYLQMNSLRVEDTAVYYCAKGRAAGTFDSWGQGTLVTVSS
VL: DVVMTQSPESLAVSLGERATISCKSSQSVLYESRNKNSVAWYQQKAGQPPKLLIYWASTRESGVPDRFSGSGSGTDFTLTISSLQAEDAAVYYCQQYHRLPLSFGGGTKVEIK

The parent's heavy chain CDRs are GFTLNSYGIS, VIYSDGRRTFYGDSVK, GRAAGTFDS; each variant's own CDRs replace them letter for letter.
Values are log10 of the apparent Kd in nM; lower means stronger binding.
The mean shown is taken over the replicates in which the pair was detected.
An entry "nd" has no value in the source: the pair was not observed among the diploids in that replicate. This suggests poor binding but is not conclusive.
The authors' rule: three or more of the six replicates give a measured affinity, fewer mean a poor binder.
Values of this round are not directly comparable with the first-round values of the same sequences.
As a blank, each scFv also met three strains without target: over all heavy chain designs, 1% of these pairings were detected, typically at 2.08 and seldom below 0.84. For each scFv, signals with the empty controls are counted beside the result.
The parent sequence was in this pool as ten entries: three were never detected, three once, and four in most replicates, with averages from 0.34 to 2.37.

For GFGLDEYGIS, VIYADGFRAYYHDNVK, GFNGGVDIL, the assay gave nd, nd, nd, nd, nd, nd (controls 0 of 18).
For GESLEEYGIS, VIYADGMREQYSDSVK, GRQGGFFVV, the assay gave nd, nd, nd, nd, nd, nd (controls 0 of 18).
For GFELDEYGIS, VIYADGKRKAYDQAVK, GKTGGVILD, the assay gave nd, 0.07, nd, nd, nd, nd (controls 0 of 18).
For GGNLDEYGIS, VIYADGIRRQYVDNVK, GETADAFDM, the assay gave nd, nd, nd, nd, nd, nd (controls 0 of 18).
For GFDINEYGIS, VIYADGMRRAYSQSVK, GHGEDLYLD, the assay gave nd, nd, nd, nd, nd, nd (controls 0 of 18).
For GFDLEEYGIS, VIYADGLRQYAQDNVK, GLISGMGKT, the assay gave 2.71, nd, nd, nd, nd, nd (controls 0 of 18).
For GFSLDEYGIS, VIYADGLRSFYQDKVK, GELALSLDT, the assay gave nd, nd, nd, nd, 2.47, nd (controls 0 of 18).
For GFNIDEYGIS, VIYADGVRTAYHDKVK, GFNQVLSLD, the assay gave nd, nd, nd, nd, nd, nd (controls 1 of 18).
For GFDLNEYGIS, VIYADGIRTAYVDQVK, SRDGIVILF, the assay gave nd, nd, nd, nd, nd, nd (controls 0 of 18).
For GFDLMEYGIS, VIYADGERKSYAESFK, GGVNVQLGT, the assay gave nd, nd, nd, nd, nd, nd (controls 0 of 18).
For GKSLEEYGIS, VIYADGKRTMYANDVK, GHVGYIFMM, the assay gave nd, nd, nd, nd, nd, nd (controls 0 of 18).
For GFDIMEYGVS, VIYADGVRTAYSQDVK, GLNLDSYVD, the assay gave nd, nd, nd, nd, nd, nd (controls 0 of 18).
For GFDLKEYGIS, VIYADGSRTAYSKNFK, GEFDDMVLV, the assay gave nd, nd, nd, nd, nd, nd (controls 0 of 18).
For GFDINEYGIS, VIYADGNRTMYQDQVK, GFNEGSFVI, the assay gave nd, nd, nd, nd, nd, nd (controls 0 of 18).
For GENLDEYGIS, VIYADGVREAYANNVK, GEQGSYFIT, the assay gave nd, nd, nd, nd, nd, nd (controls 0 of 18).
For GEDLQEYGVS, VIYADGRRMVYINSVK, GGSTGTFDF, the assay gave nd, nd, nd, nd, nd, nd (controls 0 of 18).
For GFSLDEYGIS, VIYADGTRTFYTDNVK, GLIAMVCGL, the assay gave nd, nd, nd, nd, nd, nd (controls 0 of 18).
For GFDLDKYGIS, VIYADGRRSVYADDVK, GMLGATFGV, the assay gave nd, nd, nd, nd, nd, nd (controls 2 of 18).
For GFDLNEYGVS, VIYADGIRSTYADSFK, GNVGVAFFQ, the assay gave nd, nd, nd, nd, nd, 4.48 (controls 1 of 18).
For GYDLQDYGIS, VIYADGVRAFYHQSVK, GQLAGIFLL, the assay gave nd, nd, nd, nd, nd, nd (controls 1 of 18).
For GDSLNEYGIS, VIYADGLRSYYINSVK, GEVDGLFSQ, the assay gave nd, nd, nd, nd, nd, nd (controls 0 of 18).
For GQNLDEYGIS, VIYADGMRKWYADNVK, GISSGQVII, the assay gave nd, nd, nd, nd, nd, nd (controls 0 of 18).
For GKSLDEYGIS, VIYADGMRTMYADKFK, GKLTAGSTL, the assay gave nd, nd, nd, nd, nd, nd (controls 0 of 18).
For GNDLNEYGIS, VIYADGLRVFYAENVK, GQLDVVVLA, the assay gave nd, nd, nd, nd, nd, nd (controls 0 of 18).
For GFDLEKYGIS, VIYADGIRMSYADNVK, GVYSGTAYV, the assay gave nd, nd, nd, nd, nd, nd (controls 0 of 18).
For GMNLGEYGIS, VIYADGVRQAYVDKVK, GFNGVDGIV, the assay gave nd, nd, nd, nd, nd, nd (controls 0 of 18).
For GFSLDEYGIS, VIYADGVRAHYSDQVK, GVKVGNVIM, the assay gave nd, nd, nd, nd, nd, nd (controls 0 of 18).
For EFDLQEYGIS, VIYADGKREAYKDNFK, GNGAGTFDA, the assay gave nd, nd, nd, nd, nd, nd (controls 0 of 18).
For GNDLSEYGIS, VIYADGIRTNYSQNVK, GTLGDTFTQ, the assay gave nd, nd, nd, nd, nd, nd (controls 0 of 18).
For GNDLDEVGIS, VIYADGVRNQYIQSVK, GHNAGTFDY, the assay gave nd, nd, nd, nd, nd, nd (controls 0 of 18).
For GNNLDEYGIS, VIYADGQRSAYAQDVK, GETGDNAMT, the assay gave nd, nd, nd, nd, nd, nd (controls 0 of 18).
For GFQLDEYGIS, VIYADGQRTAYSKNVK, GYIDFKRID, the assay gave nd, nd, nd, nd, nd, 3.18 (controls 0 of 18).
For GDDLEDYGIS, VIYADGRRTAYQESVK, GLIAGAIDV, the assay gave nd, nd, nd, nd, nd, nd (controls 0 of 18).
For GSDLEEYGIS, VIYADGMRSKYAQDVK, GQQGVVASM, the assay gave nd, nd, nd, nd, nd, nd (controls 0 of 18).
For GFKLGEYGIS, VIYADGQRKSYADSVK, GQSSVYMTA, the assay gave nd, nd, nd, nd, nd, nd (controls 2 of 18).
For GFNFDEYGIS, VIYADGKRNFYSDSVK, GYITGFMEV, the assay gave nd, nd, nd, nd, nd, nd (controls 0 of 18).
For GFNLNEYGIS, VIYADGQRTKYIDDVK, GTVRVLFMG, the assay gave nd, nd, nd, nd, nd, nd (controls 0 of 18).

For reference, 5 entries of the list once more:

With GFQLDEYGIS, VIYADGQRTAYSKNVK, GYIDFKRID the result was nd, nd, nd, nd, nd, 3.18 (controls 0 of 18).
With GENLDEYGIS, VIYADGVREAYANNVK, GEQGSYFIT the result was nd, nd, nd, nd, nd, nd (controls 0 of 18).
With GYDLQDYGIS, VIYADGVRAFYHQSVK, GQLAGIFLL the result was nd, nd, nd, nd, nd, nd (controls 1 of 18).
With GFELDEYGIS, VIYADGKRKAYDQAVK, GKTGGVILD the result was nd, 0.07, nd, nd, nd, nd (controls 0 of 18).
With GFDLEEYGIS, VIYADGLRQYAQDNVK, GLISGMGKT the result was 2.71, nd, nd, nd, nd, nd (controls 0 of 18).